According to PubChem BioAssay (NCI):
The list shows a part of the results, in another mix than the full data.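 Activity criterion: percent growth below 10, measured after cells in 96-well plates were exposed to a single compound concentration for 48 hours.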 Calls of active or inactive are those of the source.

Tests used:
Experiment in all cases: NCI-60 one-dose screen, 48 h (100 = growth as untreated, 0 = no growth, -100 = all killed)
HCT-15 colon = conditions: 10 µM unless noted
HT29 colon = conditions: 10 µM unless noted
SNB-75 CNS = conditions: 10 µM unless noted
SNB-19 CNS = conditions: 10 µM unless noted
U251 CNS = conditions: 10 µM unless noted
PC-3 prostate = conditions: 10 µM unless noted
SK-MEL-5 melanoma = conditions: 10 µM unless noted
UACC-62 melanoma = conditions: 10 µM unless noted
LOX IMVI melanoma = conditions: 10 µM
SK-MEL-28 melanoma = conditions: 10 µM unless noted
SK-MEL-2 melanoma = conditions: 10 µM unless noted
EKVX NSCLC = conditions: 10 µM unless noted
SN12C renal = conditions: 10 µM unless noted
UO-31 renal = conditions: 10 µM unless noted
TK-10 renal = conditions: 10 µM unless noted
CAKI-1 renal = conditions: 10 µM unless noted
A498 renal = conditions: 10 µM unless noted
HL-60(TB) leukemia = conditions: 10 µM unless noted
CCRF-CEM leukemia = conditions: 10 µM unless noted
ACHN renal = conditions: 10 µM unless noted

Measured: growth

O=P1(N(CCCl)CCCl)Nc2ccccc2N1
inactive: HCT-15 colon 123% | HT29 colon 119% | SNB-75 CNS 88.8% | SNB-19 CNS 112% | U251 CNS 106% | PC-3 prostate 106% | SK-MEL-5 melanoma 107% | UACC-62 melanoma 112% | LOX IMVI melanoma 108% | SK-MEL-28 melanoma 116% | SK-MEL-2 melanoma 115% | EKVX NSCLC 104% | SN12C renal 106% | UO-31 renal 98.3% | TK-10 renal 120% | CAKI-1 renal 106% | A498 renal 98.2% | HL-60(TB) leukemia 109% | CCRF-CEM leukemia 99.1%

O=C1OP(=O)(Cl)Oc2ccccc21 (stereo not given)
inactive: HCT-15 colon 103% | HT29 colon 99.6% | SNB-75 CNS 102% | SNB-19 CNS 102% | U251 CNS 98.4% | PC-3 prostate 86.9% | SK-MEL-5 melanoma 99.1% | UACC-62 melanoma 97.9% | LOX IMVI melanoma 102% | SK-MEL-28 melanoma 107% | SK-MEL-2 melanoma 105% | EKVX NSCLC 107% | SN12C renal 97.1% | UO-31 renal 95% | TK-10 renal 95.5% | ACHN renal 112% | A498 renal 86.9% | HL-60(TB) leukemia 84.5% | CCRF-CEM leukemia 99.4%

CCN(CCCl)C1c2ccccc2-c2ccccc21
inactive: HCT-15 colon 102% | HT29 colon 92.3% | SNB-75 CNS 92% | SNB-19 CNS 94.4% | U251 CNS 97.6% | PC-3 prostate 89.5% | SK-MEL-5 melanoma 94% | UACC-62 melanoma 92.5% | LOX IMVI melanoma 93.6% | SK-MEL-28 melanoma 104% | SK-MEL-2 melanoma 92.3% | EKVX NSCLC 102% | SN12C renal 92.5% | UO-31 renal 84% | TK-10 renal 85.3% | ACHN renal 101% | A498 renal 108% | HL-60(TB) leukemia 93% | CCRF-CEM leukemia 102%

NCCNCCCl
inactive: HCT-15 colon 98% | HT29 colon 111% | SNB-75 CNS 96.1% | SNB-19 CNS 109% | U251 CNS 99.4% | PC-3 prostate 91.3% | SK-MEL-5 melanoma 109% | UACC-62 melanoma 97.1% | LOX IMVI melanoma 104% | SK-MEL-28 melanoma 114% | SK-MEL-2 melanoma 109% | EKVX NSCLC 105% | SN12C renal 97.2% | UO-31 renal 94.1% | TK-10 renal 110% | ACHN renal 96.6% | HL-60(TB) leukemia 67.6% | CCRF-CEM leukemia 89.9%

CN(CCCl)/N=N/c1nc2c([nH]1)c(=O)n(C)c(=O)n2C
inactive: HCT-15 colon 103% | HT29 colon 90.5% | SNB-75 CNS 86.6% | SNB-19 CNS 103% | U251 CNS 104% | PC-3 prostate 104% | SK-MEL-5 melanoma 103% | UACC-62 melanoma 105% | LOX IMVI melanoma 99.9% | SK-MEL-28 melanoma 101% | SK-MEL-2 melanoma 88.2% | EKVX NSCLC 100% | SN12C renal 103% | UO-31 renal 94.7% | TK-10 renal 80% | ACHN renal 108% | A498 renal 104% | HL-60(TB) leukemia 74.1% | CCRF-CEM leukemia 104%

N#CC(C#N)=C(C#N)N(CCCl)CCCl
inactive: HCT-15 colon 106% | HT29 colon 110% | SNB-75 CNS 110% | SNB-19 CNS 99.4% | U251 CNS 100% | PC-3 prostate 98.6% | SK-MEL-5 melanoma 105% | UACC-62 melanoma 91.2% | LOX IMVI melanoma 88.4% | SK-MEL-28 melanoma 106% | SK-MEL-2 melanoma 107% | EKVX NSCLC 113% | SN12C renal 93.4% | UO-31 renal 96.9% | TK-10 renal 106% | ACHN renal 103% | CAKI-1 renal 92.9% | HL-60(TB) leukemia 96.1% | CCRF-CEM leukemia 85.2%

Nc1nnc(N)nn1
inactive: HCT-15 colon 103% | HT29 colon 103% | SNB-75 CNS 102% | SNB-19 CNS 113% | U251 CNS 101% | PC-3 prostate 99.7% | SK-MEL-5 melanoma 107% | UACC-62 melanoma 107% | LOX IMVI melanoma 92.1% | SK-MEL-28 melanoma 115% | SK-MEL-2 melanoma 111% | EKVX NSCLC 98.5% | SN12C renal 110% | UO-31 renal 90.9% | TK-10 renal 119% | ACHN renal 104% | CAKI-1 renal 95.7% | A498 renal 69.6% | HL-60(TB) leukemia 137% | CCRF-CEM leukemia 107%

ClCCN1Cc2ccccc2C1
inactive: HCT-15 colon 100% | HT29 colon 98.3% | SNB-75 CNS 78.8% | SNB-19 CNS 96.9% | U251 CNS 95.1% | PC-3 prostate 90.5% | SK-MEL-5 melanoma 95.2% | UACC-62 melanoma 85.1% | LOX IMVI melanoma 99.8% | SK-MEL-28 melanoma 97.9% | SK-MEL-2 melanoma 99.5% | EKVX NSCLC 98.3% | SN12C renal 103% | UO-31 renal 96.9% | TK-10 renal 86.8% | ACHN renal 96.7% | CAKI-1 renal 95.8% | A498 renal 86.8% | CCRF-CEM leukemia 107%

Cn1c(COc2ccc([N+](=O)[O-])cc2[N+](=O)[O-])cnc1[N+](=O)[O-]
inactive: HCT-15 colon 95.3% | HT29 colon 103% | SNB-75 CNS 76.9% | SNB-19 CNS 108% | U251 CNS 100% | PC-3 prostate 93.9% | SK-MEL-5 melanoma 101% | UACC-62 melanoma 106% | LOX IMVI melanoma 93.6% | SK-MEL-28 melanoma 112% | SK-MEL-2 melanoma 97.2% | EKVX NSCLC 83% | SN12C renal 104% | UO-31 renal 72.5% | TK-10 renal 110% | ACHN renal 103% | A498 renal 99% | HL-60(TB) leukemia 108% | CCRF-CEM leukemia 105%

CCCNC(=O)c1ccc(N(CCCl)CCCl)cc1
inactive: HCT-15 colon 106% | HT29 colon 105% | SNB-75 CNS 90% | SNB-19 CNS 114% | U251 CNS 95.8% | PC-3 prostate 83.8% | SK-MEL-5 melanoma 110% | UACC-62 melanoma 105% | LOX IMVI melanoma 89.6% | SK-MEL-28 melanoma 105% | SK-MEL-2 melanoma 110% | EKVX NSCLC 101% | SN12C renal 101% | UO-31 renal 83.6% | TK-10 renal 110% | ACHN renal 101% | A498 renal 107% | HL-60(TB) leukemia 118% | CCRF-CEM leukemia 71.7%

S=P(Cl)(N1CCCCCC1)N1CC1 (stereo not given)
inactive: HCT-15 colon 103% | HT29 colon 102% | SNB-75 CNS 87% | SNB-19 CNS 100% | U251 CNS 101% | PC-3 prostate 94.4% | SK-MEL-5 melanoma 99.5% | UACC-62 melanoma 85.4% | LOX IMVI melanoma 100% | SK-MEL-28 melanoma 106% | SK-MEL-2 melanoma 104% | EKVX NSCLC 96.3% | SN12C renal 101% | UO-31 renal 82.5% | TK-10 renal 97.7% | ACHN renal 105% | CAKI-1 renal 88.7% | HL-60(TB) leukemia 105% | CCRF-CEM leukemia 105%

CC(C)N(CCCl)/N=N/c1nc2nc[nH]c(=O)c2[nH]1
inactive: HCT-15 colon 105% | HT29 colon 96.5% | SNB-75 CNS 98.9% | SNB-19 CNS 103% | U251 CNS 107% | PC-3 prostate 105% | SK-MEL-5 melanoma 102% | UACC-62 melanoma 99.6% | LOX IMVI melanoma 99.2% | SK-MEL-28 melanoma 112% | SK-MEL-2 melanoma 88.5% | EKVX NSCLC 105% | SN12C renal 107% | UO-31 renal 86.5% | TK-10 renal 92.1% | ACHN renal 108% | A498 renal 103% | HL-60(TB) leukemia 88.6% | CCRF-CEM leukemia 102%

O=C(c1ccccc1)C(NCCCl)c1ccccc1 (stereo not given)
inactive: HCT-15 colon 95.7% | HT29 colon 78.2% | SNB-75 CNS 98.1% | SNB-19 CNS 98.2% | U251 CNS 100% | PC-3 prostate 84% | SK-MEL-5 melanoma 99.2% | UACC-62 melanoma 91% | LOX IMVI melanoma 99.7% | SK-MEL-28 melanoma 99.1% | SK-MEL-2 melanoma 92.5% | EKVX NSCLC 104% | SN12C renal 101% | UO-31 renal 82.9% | TK-10 renal 85.4% | A498 renal 104% | HL-60(TB) leukemia 111% | CCRF-CEM leukemia 112%

CCN(CCCl)/N=N/c1nc2nc[nH]c(=O)c2[nH]1
inactive: HCT-15 colon 109% | HT29 colon 105% | SNB-75 CNS 91.8% | SNB-19 CNS 105% | U251 CNS 98.8% | PC-3 prostate 103% | SK-MEL-5 melanoma 97.6% | UACC-62 melanoma 103% | LOX IMVI melanoma 99% | SK-MEL-28 melanoma 110% | SK-MEL-2 melanoma 103% | EKVX NSCLC 109% | SN12C renal 107% | UO-31 renal 86.4% | TK-10 renal 94.2% | ACHN renal 115% | A498 renal 106% | HL-60(TB) leukemia 99.4% | CCRF-CEM leukemia 115%
